Bioassay records (PubChem BioAssay)
HCMV NEC inh – inhibitors of HCMV UL50-UL53 nuclear egress complex interaction; HTRF UL50-UL53 interaction, normalized percent inhibition; inhibition, % (concentration not given with the values); 190,000 compounds, 0.15% hits; in the data active means inhibition above about 27%, passing the limit was not always enough
GIV-Gai inh – inhibitors of GIV GBA-motif binding to rat Galpha-i3; P08753; Galpha-i3/FITC-GIV peptide fluorescence polarization, 90 min; hits give low values; scaled: aluminum fluoride 0%, vehicle 100%; percent of control (FP), % (test concentration not listed); actives 0.42% (n = 210,000); AID 1224905;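 active = replicate mean at 85% of control or lower, very high polarization wells dropped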;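 also: wells of about 15 µL received 100 nL stock; the first replicate is given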
Active calls of the source: *; · = no result. This is a sample that favours compounds with a hit; in the whole collection about 0.46% have one here.

SMILES	HCMV NEC inh	GIV-Gai inh
COc1ccc(N2CCN(c3ncnc4sc(C(=O)N5CCC6(CC5)OCCO6)c(C)c34)CC2)cc1	-21	111
COc1ccccc1OCCOc1c(Cl)cc(C=C2C(=O)NC(=O)NC2=O)cc1OC	63*	106
COc1cc(C=C2C(=O)NC(=S)NC2=O)ccc1OCC(=O)O	·	99
COc1cc(C=C2C(=O)NC(=S)NC2=O)cc(Cl)c1OCCOc1ccccc1	-13	91
COc1cc(C=C2C(=O)NC(=O)NC2=O)cc(Cl)c1OCc1ccc(Cl)cc1	72*	87
COc1cc(C=C2C(=O)NC(=O)NC2=O)cc(Cl)c1OCC(=O)O	72*	96
COc1ccccc1OCCOc1c(Br)cc(C=C2C(=O)NC(=O)NC2=O)cc1OC	-1	104
COc1cc(C=C2C(=O)NC(=O)NC2=O)cc(Br)c1OCc1ccccc1Cl	7	105
COc1cc(C=C2C(=O)NC(=O)NC2=O)cc(Cl)c1OCCOc1cccc(C)c1	44*	86
O=C(c1ccccc1)N(Cc1ccco1)c1nc(-c2ccccc2)cs1	-6	106
O=C(Nc1ccc2c(c1)nc1n2CCN(Cc2ccccc2)C1)c1ccc(Cl)cc1	12	102
CCC(=O)N1CCN(c2nc(C)cc(N3CCCC3)n2)CC1	·	105
COc1cc2nc(CNCCCN3CCCC3=O)[nH]c(=O)c2cc1OC	2	·
COc1ccc(C(=O)Oc2c(Cl)cc(C=C3C(=O)NC(=O)NC3=O)cc2OC)cc1	49*	103
COc1cc(C=C2C(=O)NC(=S)NC2=O)cc(Cl)c1OCCOc1ccccc1C	-16	97

Additional structures follow.
SMILES	HCMV NEC inh	GIV-Gai inh
COc1cc(C=C2C(=O)NC(=O)NC2=O)ccc1OCC(C)C	-3	98
O=C1NC(=O)C(=Cc2cc(Cl)c(OC(=O)c3ccccc3)c(Cl)c2)C(=O)N1	5	108
COc1cc(C=C2C(=O)NC(=O)NC2=O)cc(Br)c1OCC(C)C	87*	105
COc1cc(C=C2C(=O)NC(=O)NC2=O)cc(Cl)c1OCCOc1ccccc1C	61*	92
COC(=O)C1=C(C(=O)OC)SC(=C2C(=S)C(C)(C)N(C(=O)c3ccc(Br)cc3)c3cc(OC)ccc32)S1	·	107
Cc1ccc2onc(CNC(=O)NCCCN3CCN(c4ccc(F)cc4)CC3)c2c1	-6	103
CN1CCN(CCCNc2c(N)c(=O)oc3ccccc23)CC1	-23	100
CCN(Cc1ccccc1)S(=O)(=O)c1ccc(F)c(C(=O)Nc2cc(Cl)ccc2OC)c1	·	102
CN(C)C1C(=O)C(C(N)=O)=C(O)C2(O)C(=O)C3=C(O)c4c(O)ccc(Cl)c4C(O)C3CC12 (stereo not drawn)	-54	·
C=C1c2cccc(O)c2C(O)=C2C(=O)C3(O)C(O)=C(C(N)=O)C(=O)C(N(C)C)C3C(O)C12 (stereo not drawn)	104*	103
CC[C@@]1(O)C(=O)OCc2c1cc1n(c2=O)Cc2cc3c(CN(C)C)c(O)ccc3nc2-1	-69	-6.9*
CCCCc1cc(=O)oc2c(CN(C)C)c(O)ccc12	-30	106
Nc1ccc(SCC(=O)O)c(C(=O)O)c1	-5	101
CNC(=O)CNC(=O)Nc1ccc(Cl)c(Cl)c1	44*	·
CS(=O)CCNC(=O)Nc1ccc(Cl)c(Cl)c1 (stereo not drawn)	·	107

Some of these compounds in order of length of the SMILES, smallest number first.
SMILES	HCMV NEC inh	GIV-Gai inh
Cc1ccc2onc(CNC(=O)NCCCN3CCN(c4ccc(F)cc4)CC3)c2c1	-6	103
O=C1NC(=O)C(=Cc2cc(Cl)c(OC(=O)c3ccccc3)c(Cl)c2)C(=O)N1	5	108
CCN(Cc1ccccc1)S(=O)(=O)c1ccc(F)c(C(=O)Nc2cc(Cl)ccc2OC)c1	·	102

Continuation.
SMILES	HCMV NEC inh	GIV-Gai inh
COC(=O)c1ccccc1NC(=O)C1CCCN(c2ncnc3onc(-c4ccc(F)cc4)c23)C1 (stereo not drawn)	7	101
CN(c1ccc(C(=O)Cn2nc(C(=O)O)c3ccccc3c2=O)cc1)S(C)(=O)=O	-23	·
Cc1sc2nc(SCc3nnc(Nc4ccccc4)s3)nc(N)c2c1C	-8	·
CN1CCCc2cc(/C=C3\CCC(C4CCCC4)C3=O)ccc21 (stereo not drawn)	·	157
CN1CCCc2cc(/C=C3\CC/C(=C/c4ccc5c(c4)N(C)CCC5)C3=O)ccc21	·	-75*
O=S(=O)(c1ccccc1)N1CCSC1c1ccccc1 (stereo not drawn)	-23	·
Cc1cccc(NC(=O)c2ccc3c(c2)nnn3C)c1	-4	97
COc1cc(-c2nc3sc4c(c3c(=O)[nH]2)CCCC4)ccc1OCc1ccccc1	14	99
Cc1ccc(-n2[nH]c(C)c(N=Nc3cccc(-c4cccc(C(=O)O)c4)c3O)c2=O)cc1C	80*	·
CC(=O)c1ccc(N=Cc2c(C)[nH]n(-c3ccc(C)c(C)c3)c2=O)cc1	·	111
O=c1c2ccccc2nc2c(-c3nc(-c4ccc5c(c4)OCO5)no3)cccn12	-18	58*
O=c1c2ccccc2nc2c(-c3nc(-c4ccccc4)no3)cccn12	-27	118
N#C/C(=C\c1ccc(N2CCCCC2)o1)C(N)=O	-217	197
CCOC(=O)/C(C#N)=C/c1ccc(N2CCCCC2)o1	-148	-74*
CCN(CC)c1ccc(/C=C/C23NC(=O)CCN2c2ccc(C)cc2C3(C)C)cc1 (stereo not drawn)	·	105

(next part)
SMILES	HCMV NEC inh	GIV-Gai inh
COc1cc(OC)c(CNc2ccc3cn[nH]c3c2)cc1Br	-8	111
Brc1ccc(CNc2ccc3cn[nH]c3c2)s1	56*	116
CCn1c2ccc(C)cc2c2nc(C)sc21	54*	92
Cc1nc2c3cc(F)ccc3n(CCN3CCOCC3)c2s1	28	102
O=c1[nH]c2c(s1)C=Nc1cc3ccccc3cc1N2	-36	59*
O=C(NCC1CCCO1)c1cc(-c2ccccc2)c(N2CCCCC2)s1 (stereo not drawn)	35*	102
O=C(NCC1CCCO1)c1cc2c(s1)-c1ccccc1OC2 (stereo not drawn)	·	111
Cc1cccc(-c2noc(-c3ccc(NC(=O)C4CC(=O)N(c5ccccc5C)C4)cc3)n2)c1 (stereo not drawn)	-23	108
Cc1cccn2c(=O)c(/C=C3\SC(=S)N(CC4CCCO4)C3=O)c(N3CCN(C)CC3)nc12 (stereo not drawn)	-82	-30*
CCN1CCN(c2nc3ccccn3c(=O)c2/C=C2\SC(=S)N(CC)C2=O)CC1	-61	289
Cc1cccn2c(=O)c(/C=C3\SC(=S)N(Cc4ccccc4)C3=O)c(N3CCN(C)CC3)nc12	-13	122
COCCCN1C(=O)/C(=C/c2c(N3CCN(CCO)CC3)nc3ccccn3c2=O)SC1=S	·	23*
O=C1/C(=C\c2c(N3CCN(CCO)CC3)nc3ccccn3c2=O)SC(=S)N1CC1CCCO1 (stereo not drawn)	·	25*
COCCN1C(=O)/C(=C/c2c(N3CCN(CCO)CC3)nc3ccccn3c2=O)SC1=S	-97	-29*
CC1CCN(c2nc3ccccn3c(=O)c2/C=C2/SC(=S)N(CC3CCCO3)C2=O)CC1 (stereo not drawn)	·	160

A run of entries from the list above, as a working copy:
SMILES	HCMV NEC inh	GIV-Gai inh
O=C(NCC1CCCO1)c1cc(-c2ccccc2)c(N2CCCCC2)s1 (stereo not drawn)	35*	102
O=C(NCC1CCCO1)c1cc2c(s1)-c1ccccc1OC2 (stereo not drawn)	·	111
Cc1cccc(-c2noc(-c3ccc(NC(=O)C4CC(=O)N(c5ccccc5C)C4)cc3)n2)c1 (stereo not drawn)	-23	108
Cc1cccn2c(=O)c(/C=C3\SC(=S)N(CC4CCCO4)C3=O)c(N3CCN(C)CC3)nc12 (stereo not drawn)	-82	-30*

(list continues)
SMILES	HCMV NEC inh	GIV-Gai inh
CC(c1ccccc1)N1C(=O)/C(=C\c2c(N3CCN(CCO)CC3)nc3ccccn3c2=O)SC1=S (stereo not drawn)	·	170
Cc1cc(C(=O)CSc2nccn2Cc2ccccc2)c(C)n1-c1ncn[nH]1	-31	·
Cc1noc(C)c1C(=O)NC12CC3CC(CC(C3)C1)C2	-19	·
Cc1ccc(NC(=O)Cn2c(Cc3ccccc3)nc3sc4c(c3c2=O)CCCC4)c(Br)c1	-11	104
CCc1ccccc1N1C(=O)NC(=O)/C(=C\c2ccc(N(CC)CC)o2)C1=O	-74	-59*
CCOc1ccc(N2C(=O)NC(=O)/C(=C\c3ccc(Br)o3)C2=O)cc1	·	131
Cc1ccc(N(Cc2nc3nc(C)cc(C)n3n2)C(=O)c2ccc(Cl)cc2)cc1	-29	102
